Values of other authors as cited in paper PMC12573178, “Substrate-Guided Development of HDAC11-Selective Inhibitors Featuring α‑Amino Amide Zinc-Binding Groups” (ACS Omega, 2025).

Chains of the proteins cited; added tags and fusions are not shown.
UniProt Q96DB2, whole entry: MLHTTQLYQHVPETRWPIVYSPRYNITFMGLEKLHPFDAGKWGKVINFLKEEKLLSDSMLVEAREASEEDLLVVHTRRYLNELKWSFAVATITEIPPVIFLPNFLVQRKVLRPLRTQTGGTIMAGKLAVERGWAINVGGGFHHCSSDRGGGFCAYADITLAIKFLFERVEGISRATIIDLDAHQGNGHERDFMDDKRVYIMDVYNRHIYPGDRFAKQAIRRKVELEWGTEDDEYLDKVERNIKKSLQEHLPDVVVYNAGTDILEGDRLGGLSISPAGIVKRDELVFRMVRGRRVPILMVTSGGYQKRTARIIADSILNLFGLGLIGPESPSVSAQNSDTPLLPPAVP

Biological target: HDAC11 (Homo sapiens, UniProt Q96DB2)
Conditions: read-out: IC50 as reported for HDAC11; literature values, Figure 1; ref not printed per compound; cited from earlier work

Question: For `CCCCCCN(O)C(=O)CCCCC[C@@H]1NC(=O)[C@H]([C@@H](C)CC)NC(=O)[C@H](Cc2ccccc2C(F)(F)F)NC(=O)CCSCc2cccc(n2)CSCCNC1=O`, which IC50 is on record?
Answer: The IC50 was 7.3 nM.
